Results published in US20150010545A1 (KADMON CORPORATION, LLC, priority 2011, published 2015).

What was measured:
JIMT-1 cells = assay: JIMT-1 cell proliferation assay (CellTiter 96 AQueous); type: cell-based; conditions: 72 hours
Protocol: (§1) JIMT-1 and HCC1954 cells were seeded into 96-well plates (Costar), in Dulbecco's Modification of Eagle's Medium (DMEM, Invitrogen) containing 10% Fetal Bovine Serum (heat inactivated FBS, Hyclone), 1% Penicillin-streptomycin (Hyclone). 18 hours after seeding, cells were treated with the compounds for 72 hours. Triplicate wells were used for each compound concentration. The control wells were treated with 0.2% DMSO media. The cultures were incubated at 37° C., 5% CO2 and the quantity of proliferating cells was determined using the “CellTiter 96 AQueous Non-Radioactive Cell Proliferation Assay kit” (Promega). Following incubation with the substrate solution, the plate was read using Infinite M1000 plate reader (Tecan). IC50 values were calculated based on the GraphPad Prism software analysis. Percentage inhibition of cell proliferation was calculated as [1-(treated cells/control cells)×100].

HCC1954 cells = assay: HCC1954 cell proliferation assay (CellTiter 96 AQueous); type: cell-based; conditions: 72 hours
Protocol: as §1

JIMT-1 tumors = type: in vivo; conditions: trastuzumab 20 mg/kg i.p. biwk×5 monotherapy, SCID mice
Excerpt: Female severe combined immunodeficient mice (Fox Chase SCID®, C.B-17/Icr-Prkdc^scid, Charles River Laboratories) were ten weeks old, with a body weight range of 17.6 to 20.8 grams on Day 1 of the study. Treatment began on Day 1 in four groups of mice (n=12) with upstaged subcutaneous JIMT-1 tumors (196-405 mm^3). […] The experiment included a vehicle-treated control group and a trastuzumab monotherapy group. During the study, the EXEL-7647 dosing schedule was modified to once daily on Days 1-19, 28, 29, 32-36, and 39-42, due to toxicity. Tumors were measured twice per week until the study was ended on Day 42. Treatment outcome was determined from percent tumor growth inhibition (% TGI), which evaluated the percent differences in median tumor volumes (MTVs) between treated and control mice at the end of daily dosing (Day 18) and at the end of the study (Day 42), with differences between groups deemed statistically significant at P<0.05 using the Mann-Whitney U-test. […]. Mice were also monitored for complete regression (CR) and partial regression (PR) responses, and for the frequency of 30% tumor volume (TV) regression from Day 1. The 30% TV regressions were deemed statistically significant at P<0.05 using the chi-square test. Treatment tolerability was assessed by body weight measurements and frequent observation for clinical signs of treatment related side effects.

Trastuzumab: recombinant humanized monoclonal antibody that binds to the extracellular segment of the ErbB2 receptor
rate of cellular proliferation (in words) (JIMT-1 cells; JIMT-1 cells, increasing concentrations): no impact
Inhibition of JIMT-1 cell proliferation (% inhibition) (JIMT-1 cells; Trastuzumab 0.2 μg/ml alone): 1.9%
Inhibition of JIMT-1 cell proliferation (% inhibition) (JIMT-1 cells; Trastuzumab 0.5 μg/ml alone): 3.4%
Inhibition of JIMT-1 cell proliferation (% inhibition) (JIMT-1 cells; Trastuzumab 1.0 μg/ml alone): 4.4%
Inhibition of JIMT-1 cell proliferation (% inhibition) (JIMT-1 cells; Trastuzumab 2.0 μg/ml alone): −1.8%
Inhibition of JIMT-1 cell proliferation (% inhibition) (JIMT-1 cells; Trastuzumab 5.0 μg/ml alone): −6.0%
rate of cellular proliferation (in words) (HCC1954 cells; HCC1954 cells, increasing concentrations): no impact
Inhibition of HCC1954 cell proliferation (% inhibition) (HCC1954 cells; Trastuzumab 0.2 μg/ml alone): −6.9%
Inhibition of HCC1954 cell proliferation (% inhibition) (HCC1954 cells; Trastuzumab 0.5 μg/ml alone): −6.4%
Inhibition of HCC1954 cell proliferation (% inhibition) (HCC1954 cells; Trastuzumab 1.0 μg/ml alone): −6.5%
Inhibition of HCC1954 cell proliferation (% inhibition) (HCC1954 cells; Trastuzumab 2.0 μg/ml alone): −15.5%
Inhibition of HCC1954 cell proliferation (% inhibition) (HCC1954 cells; Trastuzumab 5.0 μg/ml alone): −13.9%
JIMT-1 tumor growth (JIMT-1 tumors): completely resistant
